Measurements published in ChEMBL document CHEMBL5260798, “Structural Analysis of Chemokine Receptor-Ligand Interactions” (J Med Chem, 2017).

Sequences of proteins named here, by UniProt entry; tags and fusion partners are left off.
UniProt P61073, whole entry: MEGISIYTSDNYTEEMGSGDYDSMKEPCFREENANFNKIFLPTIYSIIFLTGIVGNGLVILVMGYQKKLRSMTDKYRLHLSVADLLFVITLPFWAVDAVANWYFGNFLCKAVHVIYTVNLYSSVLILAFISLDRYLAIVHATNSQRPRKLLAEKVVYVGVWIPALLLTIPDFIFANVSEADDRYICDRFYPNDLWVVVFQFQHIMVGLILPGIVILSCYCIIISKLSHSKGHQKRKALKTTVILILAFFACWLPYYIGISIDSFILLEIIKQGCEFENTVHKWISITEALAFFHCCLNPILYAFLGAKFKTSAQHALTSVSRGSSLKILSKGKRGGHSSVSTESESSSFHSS

What was measured:
[1] = target: C-X-C chemokine receptor type 4 (Homo sapiens, UniProt P61073); assay: Binding affinity to CXCR4 (unknown origin) assessed as inhibition constant
[2] = target: T1, C-X-C chemokine receptor type 3 (Homo sapiens, UniProt P49682); assay: Inhibition of human wild type CXCR3
T1 sequence (P49682 whole entry): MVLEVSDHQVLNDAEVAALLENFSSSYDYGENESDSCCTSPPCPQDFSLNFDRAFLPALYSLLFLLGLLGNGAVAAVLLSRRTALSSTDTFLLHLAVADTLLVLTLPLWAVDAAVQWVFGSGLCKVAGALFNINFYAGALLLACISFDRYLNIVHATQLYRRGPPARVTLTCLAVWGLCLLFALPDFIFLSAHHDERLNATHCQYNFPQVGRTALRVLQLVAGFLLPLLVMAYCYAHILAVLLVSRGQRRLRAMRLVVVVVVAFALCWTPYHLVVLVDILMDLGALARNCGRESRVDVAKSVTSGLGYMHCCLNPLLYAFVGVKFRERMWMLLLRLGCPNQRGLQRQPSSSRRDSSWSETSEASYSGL

NCCCCN(Cc1nc2ccccc2[nH]1)[C@H]1CCCc2cccnc21 [MAVORIXAFOR]
Ki [1]: 23 nM

CCOc1ccc(-n2c(C(C)N(Cc3cccnc3)C(=O)Cc3ccc(OC(F)(F)F)cc3)nc3ncccc3c2=O)cc1 (configuration not stated)
IC50 [2]: 251 nM
